This note sets out measurements from patent publication US9809653B2, “Anti-LAMP1 antibodies and antibody drug conjugates, and uses thereof” (SANOFI, priority 2012, dated 2017).

Several values for one entry are separate records, joined by “and”; a condition that tells them apart may be missing. Equal values may be shown once.

The test system of series [1] is primary human colon adenocarcinoma CR-LRB-010P. The series is described as follows: Anti-tumor activity against primary human colon adenocarcinoma CR-LRB-010P. The settings on record: day 19. An excerpt:
Control groups were left untreated. […] Animal body weights included the tumor weights. Tumor volumes were estimated from 2 dimensional tumor measurements and calculated according to the following formula (Corbett, T. H. et al., 1977, Cancer 40: 2660-2680): Tumor volume (mm^3)=[Length (mm)×Width^2 (mm^2)]/2. The primary efficacy end points are ratio of change in tumor volume changes from baseline between treated and control groups (ΔT/ΔC), percent median regression, partial regression (PR) and complete regression (CR).
Changes in tumor volume for each treated (T) and control (C) are calculated for each tumor by subtracting the tumor volume on the day of first treatment from the tumor volume on the specified observation day. The median ΔC is calculated for the untreated control group and the median ΔT is calculated for the treated group. Then the ratio ΔT/ΔC is calculated and expressed as a percentage: ΔT/ΔC=(delta T/delta C)×100 as described before
The dose is considered as therapeutically active when ΔT/ΔC is lower than 40% and very active when ΔT/ΔC is lower than 10%.
% tumor regression: is defined as the % of tumor volume decrease in the treated group at a specified observation day compared to its volume on the first day of first treatment.
At a specific time point and for each animal, % regression is calculated. The median % regression is then calculated for the group.
Partial regression (PR): Regressions are defined as partial if the tumor volume decreases to 50% of the tumor volume at the start of treatment.
Complete regression (CR): Complete regression is achieved when tumor volume=0 mm^3 (CR is considered when tumor volume cannot be recorded).
Control groups were left untreated.

Series [2] has as its system human primary invasive ductal carcinoma BRE-IGR-0159. The series is described as follows: Anti-tumor activity against human primary invasive ductal carcinoma BRE-IGR-0159. The conditions noted are these: for Average body weight change in % per mouse at nadir (day of nadir): nadir day 17; for Median ΔT/ΔC in % day: day 35.
Series [3] deals with T1, LAMP1 (SEQ ID NO: 28 protein) (Homo sapiens, UniProt P11279).
T1 construct: made in house; host or cells: HEK293 (293-F), transient expression, IMAC-purified
T1 sequence (P11279 with tags, fused parts or gaps): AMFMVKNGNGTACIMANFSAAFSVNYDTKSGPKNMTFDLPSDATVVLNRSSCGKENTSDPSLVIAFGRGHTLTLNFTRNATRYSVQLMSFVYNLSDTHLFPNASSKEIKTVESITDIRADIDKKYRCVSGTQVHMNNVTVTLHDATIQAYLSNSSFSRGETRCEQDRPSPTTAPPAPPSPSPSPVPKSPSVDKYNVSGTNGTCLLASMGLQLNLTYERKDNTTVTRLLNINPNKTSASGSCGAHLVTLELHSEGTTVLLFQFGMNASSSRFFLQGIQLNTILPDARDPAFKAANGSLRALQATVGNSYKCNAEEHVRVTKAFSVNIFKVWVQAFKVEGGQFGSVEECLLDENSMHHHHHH
The experiment in a line: Affinity to LAMP1 by SPR (BIAcore 2000). Format: binding. As for the experimental part:
The use of surface plasmon resonance to determine is known to the skilled in the art. In one example the binding kinetics of for example the murine, chimer or humanized anti-LAMP1 mAbs were determined by surface plasmon resonance assay using typically a BIAcore 2000 (BIAcore Inc., Uppsala, N.J.). Therefore, for example a CM5 BIAcore biosensor chip was docked into the instrument and activated with for example 70 μL of 1:1 NHS/EDC at room temperature. Typically, a mouse anti-αhuman Fc IgG1 (BIAcore #BR-1008-39) and rabbit anti-αmurine Fc IgG1 (BIAcore #BR-1008-38) (50 μg/mL in 1 M acetate buffer, pH5) were immobilized on the activated chips in all flow cells. The immobilization was carried out at a flow rate of for example 10 μL/min up to saturation. The chip was then blocked by for example injection of 70 μL of ethanolamine-HCl, pH 8.5, followed by one wash with 3 M MgCl2 for anti-αhuman Fc IgG1 and one wash with 10 mM Glycine-HCl pH 1.7 for anti-αmurine Fc IgG1. To measure the binding of for example anti-LAMP1 mAbs to LAMP1, antibodies were used at 1-5 μg/mL in BIAcore running buffer (HBS-EP). The antigen for example (Sequence ID No 28 protein produced as described in example 6.2) was injected from for example 1 to 256 nM. Following completion of the injection phase, dissociation was monitored in a BIAcore running buffer at the same flow rate for typically 600 sec. The surface was typically regenerated between injections using for example 2×5 μL 3 M MgCl2 (2×30 s) or anti-αhuman Fc IgG1 and 1×30 μL 10 mM Glycine-HCl pH 1.7 for anti-αmurine Fc IgG1 (180 s). Individual sensorgrams were typically analyzed using BIAevaluation software.
The binding kinetics of the murine, chimer or humanized anti-LAMP1 mAbs were determined by surface plasmon resonance assay using a BIAcore 2000 (BIAcore Inc., Uppsala, N.J.). Briefly, a CM5 BIAcore biosensor chip was docked into the instrument and activated with 70 μL of 1:1 NHS/EDC at room temperature. A mouse anti-αhuman Fc IgG1 (BIAcore #BR-1008-39) and rabbit anti-αmurine Fc IgG1 (BIAcore #BR-1008-38) (50 μg/mL in 1 M acetate buffer, pH5) were immobilized on the activated chips in all flow cells. The immobilization was carried out at a flow rate of 10 μL/min up to saturation. The chip was then blocked by injection of 70 μL of ethanolamine-HCl, pH 8.5, followed by one wash with 3 M MgCl2 for anti-αhuman Fc IgG1 and one wash with 10 mM Glycine-HCl pH 1.7 for anti-αmurine Fc IgG1. To measure the binding of anti-LAMP1 mAbs to LAMP1, antibodies were used at 1-5 μg/mL in BIAcore running buffer (HBS-EP). […] Following completion of the injection phase, dissociation was monitored in a BIAcore running buffer at the same flow rate for 600 sec. […] Individual sensorgrams were analyzed using BIAevaluation software.
On the technique in general: SPR reads the build-up and loss of mass on a sensor chip optically.

Where [4] appears, read: DM4-SPDB-chMAb2 5 mg/kg single IV.
[5] abbreviates: DM4-SPDB-chMAb2 10 mg/kg single IV.

B1: DM4-SPDB-chMAb2 (conjugate)
heavy: QVQLQQSAAELARPGASVKMSCKASGYTFTSYTMHWVKQRPGQGLEWIGYFNPSSGYPEYNQKFKDKTTLTADKSSNTAFIQLNSLTSEDSAVYYCSRGYYYGSRGYALDFWGQGTSVTVSSASTKGPSVFPLAPSSKSTSGGTAALGCLVKDYFPEPVTVSWNSGALTSGVHTFPAVLQSSGLYSLSSVVTVPSSSLGTQTYICNVNHKPSNTKVDKKV[not shown - human IgG1 Fc]
light: NIVLTQSPASLAVSLGQRATISCRASESVDINGNTFMHWYQQKPGQSPKLLIYAASNLESGVPARFSGSGSGTDFTFTIDPVEADDVATYYCQQNIEDPWTFGGGTKLEIKRTVAAPSVFIFPPSDEQLKSGTASVVCLLNNFYPREAKVQWKVDNALQSGNSQESVTEQDSKDSTYSLSSTLTLSKADYEKHKVYACEVTHQGLSSPVTKSFNRGEC
Turning to B1, the “Drug death (Day of death)” value in series [1] (setting [4]) is 0/6; in series [1] (setting [5]), 0/6; in series [2] (5.0 mg/kg IV, single injection day 14), 0/6; in series [2] (10.0 mg/kg IV, single injection day 14) it was 0/6. Moreover, the “Regressions Complete” value in series [1] (setting [4]) is 0/6; in series [1] (setting [5]), 0/6; in series [2] (5.0 mg/kg IV, day 14), 6/6; in series [2] (10.0 mg/kg IV, day 14), 5/5. The “Regressions Partial” value was 0/6 in series [1] (setting [4]); 1/6 in series [1] (setting [5]); 6/6 in series [2] (5.0 mg/kg IV, day 14); 5/5 in series [2] (10.0 mg/kg IV, day 14). For the same molecule, the “Median ΔT/ΔC in % day” value was 10% and 10 (28) % in series [1] (DM4-SPDB-chMAb2 5 mg/kg single IV, day 28, 5 mg/kg); < 0% and <0 (31) % in series [1] (DM4-SPDB-chMAb2 10 mg/kg single IV, day 31, 10 mg/kg). The “Average body weight change in % per mouse at nadir (day of nadir)” value was −2.4 (37) % in series [1] (DM4-SPDB-chMAb2 5 mg/kg single IV, nadir day 37); −1.6 (20) % in series [1] (DM4-SPDB-chMAb2 10 mg/kg single IV, nadir day 20); −6.9 (17) % in series [2] (5.0 mg/kg IV, day 14); −5.2 (17) % in series [2] (10.0 mg/kg IV, day 14). In addition, the “Median % of regression on day” value in series [1] (DM4-SPDB-chMAb2 10 mg/kg single IV, day 31) is 36 (31) %. In addition, the “Median % of regression on day 24” value in series [2] (5.0 mg/kg IV, day 14) is reported as 100%; in series [2] (10.0 mg/kg IV, day 14) it was 100%. For the same molecule, the “Median ΔT/ΔC in % day 24” value in series [2] (5.0 mg/kg IV, day 14) was <0%; in series [2] (10.0 mg/kg IV, day 14), <0%. The “Tumor Free survivor on day 124” value is 6/6 in series [2] (5.0 mg/kg IV, day 14) and 5/5 in series [2] (10.0 mg/kg IV, day 14).

B2: chMAb2can: chimeric antibody from MAb2can, heavy chain SEQ ID NO: 21, light chain SEQ ID NO: 22 (antibody)
heavy: B1 heavy
light: B1 light
modifications: antibody fragment
In series [3], B2 came in with a ka of 72100 M⁻¹ s⁻¹ and a kd of 0.00496 s⁻¹.

B3: chMAb3VL_R24_R93: chimeric antibody, heavy chain SEQ ID NO: 49, light chain SEQ ID NO: 81 (antibody)
heavy: QIQLVQSGPELKKPGETVKISCKASGYIFTNYGMNWVKQAPGKGLKWMGWINTYTGESRYADDFKGRFALSLETSASTAYLQINNLENEDMATYFCAREDYYGNSPWFFDVWGAGTTVTVSSASTKGPSVFPLAPSSKSTSGGTAALGCLVKDYFPEPVTVSWNSGALTSGVHTFPAVLQSSGLYSLSSVVTVPSSSLGTQTYICNVNHKPSNTKVDKKV[not shown - human IgG1 Fc]
light: DIQMTQTTSSLSASLGDRVTISCRASQGINKYLNWYQQKPDGTVKLLIYYTSTLHSGVPSRFSGSGSGTDYSLTINNLEPEDIATYYCQQYTRLPFTFGSGTKLEIKRTVAAPSVFIFPPSDEQLKSGTASVVCLLNNFYPREAKVQWKVDNALQSGNSQESVTEQDSKDSTYSLSSTLTLSKADYEKHKVYACEVTHQGLSSPVTKSFNRGEC
modifications: HC chMAb3; chimeric
In series [3], B3 yielded a ka of 173000 M⁻¹ s⁻¹ and a kd of 0.00125 s⁻¹.

B4: DM4-SPDB-chMAb3 (conjugate)
heavy: B3 heavy
light: B3 light
With B4, in series [2] (1.25 mg/kg IV, day 16), the “Regressions Complete” value is reported as 6/6, the “Regressions Partial” value is given as 6/6, the “Median ΔT/ΔC in % day” value is recorded as <0 (35) % and the “Tumor free survivors day 76” value is reported as 2/6. Also, the “Average body weight change in % per mouse at nadir (day of nadir)” value in series [2] (1.25 mg/kg IV, day 16) is −1.7 (17) %. For the same molecule, the “Drug death (Day of death)” value in series [2] (1.25 mg/kg IV, single injection day 16) is recorded as 0/6. For the same molecule, in series [2] (5.0 mg/kg IV, day 16), the “Regressions Complete” value is on record as 6/6, the “Regressions Partial” value is 6/6, the “Median ΔT/ΔC in % day” value is given as <0 (35) % and the “Tumor free survivors day 76” value is 6/6. The “Average body weight change in % per mouse at nadir (day of nadir)” value in series [2] (5.0 mg/kg IV, day 16) is listed as −2.8 (17) %. Further, the “Drug death (Day of death)” value in series [2] (5.0 mg/kg IV, single injection day 16) was 0/6.
